# Values quoted from earlier work as cited in paper PMC8136485, “Were Ancestral Proteins Less Specific?” (Molecular Biology and Evolution, 2021).
# Key:
# [1] = target: Annexin I peptide (Homo sapiens) (UniProt P04083); settings: cited from earlier work
# [2] = target: SIP peptide (Homo sapiens) (UniProt Q9HB71); settings: cited from earlier work
substance,measurement,setting,value
hA6 (S100A6) (from UniProt P06703),Kd,[1],17 µM
same,Kd,[2],26 µM
